This assay has as its target T1, trkA (Rattus norvegicus, UniProt P35739).
T1 construct: are rat pheochromocytoma cells that bear trkA; host or cells: PC12 rat pheochromocytoma cells
The experiment in a line: inhibition of NGF-stimulated trk autophosphorylation (tyrosine phosphorylation) in PC12 cells, anti-phosphotyrosine Western blot. Further: key: +: Inhibited phosphorylation; -: Did not inhibit phosphorylation. It is filed as cell-based. The protocol:
Candidate compounds for the inhibition of prostate cell proliferation were selected according to their ability to inhibit the tyrosine kinase activity associated with the trks.
PC12 cells (ATCC #CRL1721) are rat pheochromocytoma cells that bear trkA and differentiate into sympathetic neurons when treated with NGF. […] Cells were incubated at 37° C. in a humidified atmosphere of 10% CO2 and 90% air. […] The cells in each culture were disrupted and cell lysates were prepared by standard techniques known to those skilled in the art. Each lysate was incubated with anti-trk antibody whereby immune complexes were formed. […] The immune complexes were collected on Protein A-Sepharose beads, separated by SDS-polyacrylamide gel electrophoresis (SDS-PAGE), and transferred to polyvinylidene difluoride (PVDF) membranes (Millipore Corp., Bedford, Mass.), using techniques well known to those skilled in the art. The membranes were incubated with anti-phosphotyrosine antibody, which binds to the tyrosine phosphorylated trks, but not to the un-phosphorylated form of trks. Proteins bound to anti-phosphotyrosine antibody were visualized with enhanced chemiluminescence (ECL, Amersham), and are shown as dark "spots" in FIG. 1.
Measurement of the autophosphorylation of trk provides a good index of trk tyrosine kinase activity, and thereby of trk stimulation. […]
In general terms: In western blotting, separated proteins are transferred to a membrane and probed.

Sequences of proteins named here, by UniProt entry; tags and fusion partners are left off. Residues count along the entry.
UniProt P35739, 33-799: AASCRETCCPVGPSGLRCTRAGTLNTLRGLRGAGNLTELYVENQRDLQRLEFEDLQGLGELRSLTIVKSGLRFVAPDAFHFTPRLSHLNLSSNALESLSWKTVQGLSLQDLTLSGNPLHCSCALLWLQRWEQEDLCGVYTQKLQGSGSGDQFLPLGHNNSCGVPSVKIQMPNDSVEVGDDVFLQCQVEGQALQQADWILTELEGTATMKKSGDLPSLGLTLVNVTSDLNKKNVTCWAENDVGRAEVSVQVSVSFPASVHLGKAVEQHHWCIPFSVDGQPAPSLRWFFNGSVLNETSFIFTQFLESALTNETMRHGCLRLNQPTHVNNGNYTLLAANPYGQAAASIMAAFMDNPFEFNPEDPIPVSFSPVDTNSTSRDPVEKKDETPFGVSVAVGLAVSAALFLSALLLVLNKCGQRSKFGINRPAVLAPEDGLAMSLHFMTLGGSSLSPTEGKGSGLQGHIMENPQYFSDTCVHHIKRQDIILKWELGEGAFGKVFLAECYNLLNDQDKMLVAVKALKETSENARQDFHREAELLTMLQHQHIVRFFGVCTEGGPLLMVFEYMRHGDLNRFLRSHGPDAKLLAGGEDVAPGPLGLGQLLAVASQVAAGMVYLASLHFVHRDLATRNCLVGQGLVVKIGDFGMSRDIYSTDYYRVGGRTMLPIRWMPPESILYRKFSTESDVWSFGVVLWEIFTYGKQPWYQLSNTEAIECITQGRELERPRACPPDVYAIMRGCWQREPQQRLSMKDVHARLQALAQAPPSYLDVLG

With `CC12OC(CC1(O)CO)n1c3ccccc3c3c4c(c5c6ccccc6n2c5c31)CNC4=O` (stereo not shown) [Compound I-2], the “trk 100 nM (inhibition of phosphorylation)” value is reported as “+”.

For the origin of these results see patent US5654427A, “Indolocarbazole derivatives to treat a pathological condition of the prostate” (Kyowa Hakko Kogyo Co., Ltd., priority 1995, dated 1997).
